PubChem BioAssay AID686964 (The Scripps Research Institute Molecular Screening Center, 2013)
The entries are a selection whose mix differs from that of the whole data set. Activity calls are given as the source filed them. Rule as the data show it: active = inhibition above about 13%; inactive = the rest.

Protein sequences, listed by entry. Tags and fused reporters are not part of them.
UniProt Q9UBB5, whole entry: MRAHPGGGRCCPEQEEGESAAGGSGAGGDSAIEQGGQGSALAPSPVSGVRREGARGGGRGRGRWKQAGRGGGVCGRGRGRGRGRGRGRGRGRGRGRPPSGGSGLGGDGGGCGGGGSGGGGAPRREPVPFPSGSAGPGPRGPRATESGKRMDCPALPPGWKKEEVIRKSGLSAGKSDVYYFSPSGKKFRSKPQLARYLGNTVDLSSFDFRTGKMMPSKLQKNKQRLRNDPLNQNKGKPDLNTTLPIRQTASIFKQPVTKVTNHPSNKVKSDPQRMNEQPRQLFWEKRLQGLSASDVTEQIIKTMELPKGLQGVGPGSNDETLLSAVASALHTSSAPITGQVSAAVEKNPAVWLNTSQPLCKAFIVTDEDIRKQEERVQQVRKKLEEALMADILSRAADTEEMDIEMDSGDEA

Target: Methyl-CpG-binding domain protein 2 (Homo sapiens) (UniProt Q9UBB5)
Experiment: inhibitors of MBD2 binding to methylated DNA, primary screen, biochemical, TR-FRET, DNA-binding domain, human (AID 686964)
Conditions: MBD2 binding to methylated oligonucleotide, at 4.4 µM, stronger effect = higher value

| Compound | inhibition |
| --- | --- |
| Cc1ccc(C)c(NP(C)(=O)Oc2ccccc2)c1 (stereo unspecified) | inactive: 2.15% |
| Cc1cc(C)cc(OP(C)(=O)Nc2ccccn2)c1 (stereo unspecified) | inactive: 1.59% |
| CP(=O)(Nc1cccc(Br)c1)Oc1ccccc1 (stereo unspecified) | inactive: -0.94% |
| O=C(O)c1cccc(Nc2c([N+](=O)[O-])cc([N+](=O)[O-])cc2[N+](=O)[O-])c1 | inactive: -6.84% |
| CC1=NCCc2c1[nH]c1ccccc21.O=[N+]([O-])c1cc([N+](=O)[O-])c(O)c([N+](=O)[O-])c1 | inactive: 1.78% |
| O=[N+]([O-])c1cc([N+](=O)[O-])c(Nc2nnnn2CCO)c([N+](=O)[O-])c1 | inactive: -15.6% |
| CCOC(=O)C(CC)C1=NC(C)(C)Cc2ccccc21.O=[N+]([O-])c1cc([N+](=O)[O-])c(O)c([N+](=O)[O-])c1 (stereo unspecified) | inactive: -3.58% |
| COc1ccccc1OP(C)(=O)Nc1c(C)cccc1C (stereo unspecified) | inactive: 2.92% |
| CN1CCCCC1COC(=O)C1(O)c2ccccc2CCc2ccccc21 (stereo unspecified) | inactive: 3.53% |
| COc1ccc(-c2ccccn2)cc1.O=[N+]([O-])c1cc([N+](=O)[O-])c(O)c([N+](=O)[O-])c1 | inactive: -3.68% |
| CCCOc1ccc(NP(C)(=O)Oc2ccc(Cl)cc2)cc1 (stereo unspecified) | inactive: -3.03% |
| CP(=O)(Nc1ccc(SC(F)(F)F)cc1)Oc1ccccc1 (stereo unspecified) | inactive: -2.25% |
| O=[N+]([O-])c1cc([N+](=O)[O-])c(-n2nnc3ccccc32)c([N+](=O)[O-])c1 | inactive: 3.79% |
| CN(Cc1cccnc1)C(=O)COc1ccc(Cl)c(Cl)c1.O=[N+]([O-])c1cc([N+](=O)[O-])c(O)c([N+](=O)[O-])c1 | inactive: -0.23% |
| O=[N+]([O-])c1cc([N+](=O)[O-])c(-c2cnn(-c3ccccc3)c2)c([N+](=O)[O-])c1 | inactive: 2.97% |
| Cc1nc2ccc3ccccc3c2s1.O=[N+]([O-])c1cc([N+](=O)[O-])c(O)c([N+](=O)[O-])c1 | inactive: -8.5% |
| Cc1cccc(C)c1OP(C)(=O)Nc1ccc(SC(F)(F)F)cc1 (stereo unspecified) | inactive: -0.16% |
| CP(=O)(Nc1ccc(SC(F)(F)F)cc1)Oc1ccc(Cl)cc1 (stereo unspecified) | inactive: -5.97% |
| CP(=O)(Oc1ccccc1)OC(c1ccccc1)C(F)(F)F (stereo unspecified) | inactive: -3.36% |
| CP(=O)(NC(=O)Nc1ccccc1)Oc1ccccc1 (stereo unspecified) | inactive: -2.31% |
| CCc1ccc(OP(C)(=O)N2CCN(c3ccc([N+](=O)[O-])cc3)CC2)cc1 (stereo unspecified) | inactive: -2.02% |

| Compound | inhibition |
| --- | --- |
| Cc1cc(C)cc(OP(C)(=O)Nc2ccc(SC(F)(F)F)cc2)c1 (stereo unspecified) | inactive: 6.34% |
| CCOC(=O)c1ccc(NP(C)(=O)Oc2ccc(OC)cc2)cc1 (stereo unspecified) | inactive: -2.09% |
| O=[N+]([O-])c1cc([N+](=O)[O-])c(O)c([N+](=O)[O-])c1.c1ccc(Oc2ccncc2)cc1 | inactive: 5.94% |
| CCOP(C)(=S)SCC(=O)NC(C)C(=O)O (stereo unspecified) | inactive: -1.86% |
| CP(=O)(Nc1ccccn1)Oc1ccc(Cl)cc1 (stereo unspecified) | inactive: 0.64% |
| CP(=S)(Nn1cnnc1)Oc1ccccc1 (stereo unspecified) | inactive: -0.7% |
| CP(=O)(Nc1ccccc1Br)Oc1ccccc1 (stereo unspecified) | inactive: 1.94% |
| COc1ccccc1OP(C)(=O)Nc1ccccc1 (stereo unspecified) | inactive: -0.04% |
| O=[N+]([O-])c1cc([N+](=O)[O-])c(Nc2cccnc2)c([N+](=O)[O-])c1 | inactive: -4.89% |
| O=[N+]([O-])c1ccc2c(c1)C=Nc1ccccc1O2 | inactive: -1.22% |
| CC(C)(C)c1ccc(OP(C)(=O)Nc2ccc(SC(F)(F)F)cc2)cc1 (stereo unspecified) | inactive: 4.72% |
| Cc1cccc(C)c1OP(C)(N)=O (stereo unspecified) | inactive: -1.92% |
| COc1ccccc1OP(C)(=O)Nc1ccc(C)cc1 (stereo unspecified) | inactive: 4.25% |
| Cc1ccc(NP(C)(=O)Oc2ccccc2)c(C)c1 (stereo unspecified) | inactive: 3.56% |
| CCOC(=O)c1ccc(NP(C)(=O)Oc2ccccc2)cc1 (stereo unspecified) | inactive: -2.09% |
| Cc1cc(C)cc(OP(C)(N)=O)c1 (stereo unspecified) | inactive: -6.54% |
| COc1ccccc1OP(C)(=O)Nc1cc(Cl)ccc1C (stereo unspecified) | inactive: -1.48% |
| COc1ccc(OP(C)(=O)Nc2cccc(F)c2)cc1 (stereo unspecified) | inactive: 2.74% |
| CCN(CC)CCCOC(=O)C(O)(c1ccccc1)c1ccccc1 | inactive: 6.11% |
| COc1ccccc1-c1ccccn1.O=[N+]([O-])c1cc([N+](=O)[O-])c(O)c([N+](=O)[O-])c1 | inactive: -2.91% |
